From PMC10838150 (Toxicology in vitro : an international journal published in …, 2021)
“And” between values parts separate entries of the source, which are not always exact repeats. Equal entries are not always repeated.

Phase II Metabolite Formation Rate (PHHs): 6.55 ± 0.365 pmol/minute-million cells
Structure (SMILES): O=S(=O)(O)O.O=c1ccc2ccc(O)cc2o1 [7HCS, 7-hydroxycoumarin sulfate]
Phase II Metabolite Formation Rate (HepG2): 4.77 ± 1.04 pmol/minute-million cells and 6.46 ± 3.63 pmol/minute-million cells
Phase II Metabolite Formation Rate (HEK293): 10.3 ± 1.86 pmol/minute-million cells and 17.9 ± 3.56 pmol/minute-million cells
Phase II Metabolite Formation Rate (MCF7): 4.69 ± 0.848 pmol/minute-million cells and 6.63 ± 4.56 pmol/minute-million cells
